## Reported water solubility values for industrial, environmental and drug-like chemicals

Values as listed in the OPERA 2.9 repository of K. Mansouri.

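OPERA's authors assembled the values from existing databases and did not measure them anew. A listed value is a point estimate from one report or more. Method and conditions are not stated for these values. Where a salt, mixture or single isomer is drawn, the source does not say that exactly this form was tested. Some entries may be limits or estimates that an upstream database listed as plain numbers.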

Solubility in water is on a log10 molar scale (set defined at 25 °C).

* COC(=O)C1=CO[C@@H](O[C@@H]2O[C@H](CO)[C@@H](O)[C@H](O)[C@H]2O)[C@H]2[C@@H]1C(=O)C[C@@H]2C: log solubility -0.265 (log10 mol/L)
* O=[N+]([O-])c1ccc(Br)c(Cl)c1 [1-Bromo-2-chloro-4-nitrobenzene]: log solubility -4.09 (log10 mol/L)
* CC1=C(C(=O)Nc2ccccc2)CCCO1 [3,4-Dihydro-6-methyl-N-phenyl-2H-pyran-5-carboxamide]: log solubility -2.56 (log10 mol/L)
* CCCCCCCOc1ccc(C(C)(c2ccccc2)c2ccc(OCCCCCCC)cc2)cc1: log solubility -9.044 (log10 mol/L)
* O=C(O)c1cccc(Cl)n1 [6-Chloro-2-picolinic acid]: log solubility -1.631 (log10 mol/L)
* CN(C)c1ccc(N=Nc2ccc(S(=O)(=O)O)cc2)cc1 [4-{[4-(Dimethylamino)phenyl]diazenyl}benzene-1-sulfonic acid]: log solubility -3.86 (log10 mol/L)
* Clc1ccc(Oc2cc(Cl)c(Cl)c(Cl)c2)cc1Cl [3,3',4,4',5-Pentachlorodiphenyl ether]: log solubility -8.25 (log10 mol/L)
* CCCCCCCCCCCCN1CC(C(=O)O)CC1=O (stereo not drawn) [1-Dodecyl-5-oxopyrrolidine-3-carboxylic acid]: log solubility -3.223 (log10 mol/L)
* CC(O)(CN)C(=O)O (stereo not drawn) [3-Amino-2-hydroxy-2-methylpropanoic acid]: log solubility -1.336 (log10 mol/L)
* C#C[C@]1(O)CC[C@H]2[C@@H]3CCc4cc(OC5CCCC5)ccc4[C@H]3CC[C@@]21C [Quinestrol]: log solubility -5.366 (log10 mol/L)
* NS(=O)(=O)c1cc(S(N)(=O)=O)cc(S(N)(=O)=O)c1 [Benzene-1,3,5-trisulfonamide]: log solubility -2.32 (log10 mol/L)
* CCCCCCCCCCCCCCCCNC(=O)c1cccnc1 [N-Hexadecyl-3-pyridinecarboxamide]: log solubility -2.96 (log10 mol/L)
* O=C(N[C@H](C(=O)O)c1ccccc1)c1ccccc1 [N-Benzoyl-(S)-phenylglycine]: log solubility -2.246 (log10 mol/L)
* CC(=O)OCCCCCc1ccc(S(N)(=O)=O)cc1 [5-(4-Sulfamoylphenyl)pentyl acetate]: log solubility -2.376 (log10 mol/L)
* O=c1ncc2[nH]c(=O)[nH]c2[nH]1 [1H-Purine-2,8(3H,7H)-dione]: log solubility -3.597 (log10 mol/L)
* CCN(CCO)c1ccc(N=Nc2ccc([N+](=O)[O-])cc2)cc1 [C.I. Disperse Red 1]: log solubility -6.29 (log10 mol/L)
* CCCCCCCCCCCC(=O)N(C)CC(=O)O [N-Dodecanoyl-N-methylglycine]: log solubility -2.735 (log10 mol/L)
* CC(=O)Nc1ccc(C=O)cc1 [Acetamide, N-(4-formylphenyl)-]: log solubility -1.58 (log10 mol/L)
* CNS(=O)(=O)c1cc(OC)c(N=Nc2c(O)c(C(=O)Nc3ccc4[nH]c(=O)[nH]c4c3)cc3ccccc23)cc1OC [C.I. Pigment Violet 32]: log solubility -7.892 (log10 mol/L)
* CN(C)CCC(c1ccccc1)c1ccccn1 (stereo not drawn) [Pheniramine]: log solubility -2.804 (log10 mol/L)
* O=S1CSCS(=O)C1 (stereo not drawn) [1,3,5-Trithiane 1,3-dioxide]: log solubility -1.001 (log10 mol/L)
* C=C(C)C(=O)OCCCCCCCCCC [Decyl methacrylate]: log solubility -6.11 (log10 mol/L)
* O=C(NN=Cc1ccc([N+](=O)[O-])o1)c1ccncc1 [N'-(5-Nitrofurfurylidene)isonicotinic hydrazide]: log solubility -3.734 (log10 mol/L)
* NCC(=O)NCC(=O)NCC(=O)NCC(=O)NCC(=O)NCC(=O)O [Hexaglycine]: log solubility -2.858 (log10 mol/L)
* C[Si](C)(C)O[Si](O[Si](C)(C)C)(O[Si](C)(C)C)O[Si](C)(C)C [Tetrakis(trimethylsiloxy)silane]: log solubility -9.407 (log10 mol/L)
* CCCCCCCCC(CCCCCC)C(=O)OC[C@H](OC(=O)C(CCCCCC)CCCCCCCC)[C@H]1OC(=O)C(OC(=O)C(CCCCCC)CCCCCCCC)=C1OC(=O)C(CCCCCC)CCCCCCCC (some centres not stated) [Tetrahexyldecyl ascorbate]: log solubility -7.099 (log10 mol/L)
* CC(C(=O)O)C(C)(C)C(=O)O (stereo not drawn) [Trimethyl butanedioic acid]: log solubility -0.224 (log10 mol/L)
* CCC(CC)(C(=O)O)C(=O)O [Propanedioic acid, diethyl-]: log solubility 0.608 (log10 mol/L)
* O=C(NN=Cc1ccc([N+](=O)[O-])o1)c1cccc([N+](=O)[O-])c1 [3-Nitro-N'-[(5-nitro-2-furyl)methylene]benzohydrazide]: log solubility -4.992 (log10 mol/L)
* Cc1nc2[nH]cnc(=O)c2nc1C [6,7-Dimethyl-1H-pteridin-4-one]: log solubility -2.267 (log10 mol/L)
* CCOC(=O)C(Cc1ccccc1C(=O)O)C(=O)OCC [1,3-Diethyl (o-carboxybenzyl)malonate]: log solubility -2.816 (log10 mol/L)
* NC(=O)Nc1ncnc2nc[nH]c12 [N-7H-Purin-6-ylurea]: log solubility -2.754 (log10 mol/L)
* Cc1c(Cc2c(C)n(C)n(-c3ccccc3)c2=O)c(=O)n(-c2ccccc2)n1C: log solubility -2.951 (log10 mol/L)
* COC(=O)c1ccc(N=Nc2ccc(N)cc2N)cc1 [4-(2,4-Diaminophenylazo)benzoic acid methyl ester]: log solubility -3.201 (log10 mol/L)
* CC(=NO)C(F)(F)F [1,1,1-Trifluoro-acetone oxime]: log solubility -0.229 (log10 mol/L)
* Nc1ccc2cc(S(=O)(=O)O)ccc2c1 [6-Aminonaphthalene-2-sulfonic acid]: log solubility -3.27 (log10 mol/L)
* Cc1ccc(/C(=C\CN2CCCC2)c2ccccn2)cc1 [Triprolidine]: log solubility -3.715 (log10 mol/L)

The 2 highest values of log solubility among the entries above:

{"smiles": "CCC(CC)(C(=O)O)C(=O)O", "name": "Propanedioic acid, diethyl-", "log solubility (log10 mol/L)": "0.608"}
{"smiles": "CC(C(=O)O)C(C)(C)C(=O)O", "stereo": "stereo not drawn", "name": "Trimethyl butanedioic acid", "log solubility (log10 mol/L)": "-0.224"}